PubChem BioAssay AID2099 (Broad Institute, 2009)
This is a selection; strong and weak results do not stand in their true shares. The source made the active and inactive calls.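 Rule for the calls: active = more than half of a compound's replicate wells show inhibition beyond 50%, single wells judged on their own value; inconclusive = some, but no more than half, of replicates pass 50% inhibition; inactive = no replicate passes 50% inhibition.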

Protein sequences, listed by entry. Tags and fused reporters are not part of them. Lines headed by an entry give the natural chain unless they say otherwise; changes in a name come on top.
UniProt Q9H3R0: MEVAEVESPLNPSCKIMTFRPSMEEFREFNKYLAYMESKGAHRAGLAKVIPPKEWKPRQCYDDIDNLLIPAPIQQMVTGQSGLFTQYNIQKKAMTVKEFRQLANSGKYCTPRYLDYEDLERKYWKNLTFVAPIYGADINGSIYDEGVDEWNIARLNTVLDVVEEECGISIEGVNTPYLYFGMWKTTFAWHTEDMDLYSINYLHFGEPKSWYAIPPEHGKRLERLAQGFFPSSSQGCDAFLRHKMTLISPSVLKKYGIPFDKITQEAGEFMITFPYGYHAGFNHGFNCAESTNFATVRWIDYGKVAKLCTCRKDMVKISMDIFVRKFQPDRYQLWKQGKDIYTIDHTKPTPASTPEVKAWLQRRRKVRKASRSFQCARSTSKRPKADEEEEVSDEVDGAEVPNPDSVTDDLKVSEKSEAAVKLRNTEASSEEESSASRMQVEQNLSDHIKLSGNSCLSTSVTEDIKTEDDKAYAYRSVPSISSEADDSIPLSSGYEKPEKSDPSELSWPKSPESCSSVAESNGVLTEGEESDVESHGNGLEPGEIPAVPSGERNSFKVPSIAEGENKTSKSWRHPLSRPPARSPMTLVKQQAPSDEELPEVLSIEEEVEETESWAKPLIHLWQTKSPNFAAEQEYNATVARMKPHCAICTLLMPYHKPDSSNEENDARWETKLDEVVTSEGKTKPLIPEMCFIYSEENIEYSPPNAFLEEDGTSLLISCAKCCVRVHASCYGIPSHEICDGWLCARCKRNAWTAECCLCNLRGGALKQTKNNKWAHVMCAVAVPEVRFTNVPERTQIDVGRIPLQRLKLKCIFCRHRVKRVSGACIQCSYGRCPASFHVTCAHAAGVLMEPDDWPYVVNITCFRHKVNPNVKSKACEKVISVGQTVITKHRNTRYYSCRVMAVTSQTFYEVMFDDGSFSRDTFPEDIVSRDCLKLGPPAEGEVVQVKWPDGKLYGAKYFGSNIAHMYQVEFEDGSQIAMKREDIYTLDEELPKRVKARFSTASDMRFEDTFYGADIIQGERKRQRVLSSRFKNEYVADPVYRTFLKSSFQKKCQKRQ

Each molecule was assayed against Lysine-specific demethylase 4C (Homo sapiens) (UniProt Q9H3R0) (assay: JMJD2C H3K9me3 demethylation blockers – biochemical, fluorescence, DELFIA europium, primary screen (AID 2099;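 note: signal counts dimethyl H3K9 product captured on neutravidin plate; 0% = median of DMSO wells and 100% = 0.3 times that DMSO median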)). Settings: GST-JMJD2C(1-420) H3K9me3 demethylation, at 2.35 µM, active compounds read high.

Row | Structure (SMILES) | inhibition
1 | COc1ccc(C2=NCC(CBr)S2)cc1 (stereo unspecified) | inactive: -29.2%
2 | Cc1ccc(NP(=O)(Oc2ccccc2)Oc2ccccc2)nc1 | inactive: 15.7%
3 | O=[N+]([O-])c1cc([N+](=O)[O-])c(CCNc2ccccc2)c([N+](=O)[O-])c1 | inactive: -6.06%
4 | CCc1nc2c(n1)c1c(non1O)c1c2no[n+]1[O-] | inactive: -2.42%
5 | CC(=O)N1C2C3N(C(C)=O)C1C1N(C(C)=O)C(C(N1C(C)=O)N3C(C)=O)N2C(C)=O | inactive: -8.47%
6 | O=[N+]([O-])c1cccc2n[nH]nc12 | inactive: -8.24%
7 | CCN(/C(=N/P(=O)(N1CCOCC1)N1CCOCC1)N1CCOCC1)c1ccc(OC)cc1 | inactive: -10.3%
8 | Nc1ccc([As](=O)(O)c2ccc(N)cc2)cc1 | inactive: -2.95%
9 | C[N+]1=C2C=CC=CC=C2SC12C([N+](=O)[O-])=CC([N+](=O)[O-])=C[C-]2[N+](=O)[O-] (stereo unspecified) | inactive: -12.3%
10 | CC1CCN(C(=O)Oc2c(Cl)cc(Cl)c3cccnc23)CC1 | inactive: 24.3%
11 | CC(C)=N/N=C(\N)N[N+](=O)[O-] | inactive: 0.379%
12 | CN(C)C(=O)OCCc1n(C)cc[n+]1C | inactive: 3.94%
13 | O=P(Nc1nccs1)(c1ccccc1)c1ccccc1 | inactive: 8.27%
14 | CC(C)C(=O)NC(Sc1ccccc1)C(Cl)(Cl)Cl (stereo unspecified) | inactive: 5.31%
15 | c1nnnn1CCn1cnnn1 | inactive: 2.77%
16 | CN(C)C1(CNC(=O)c2ccc(Cl)c(S(N)(=O)=O)c2)CCCCC1 | inactive: 6.41%
17 | O=P(Nc1ccccn1)(c1ccc(Br)cc1)c1ccc(Br)cc1 | inactive: 12.2%
18 | O=P(Nc1nc2ccccc2s1)(c1ccccc1)c1ccccc1 | inactive: 3.28%
19 | C[C@H]1OP(=O)(Oc2ccccc2)[C@H](O)[C@H](O)[C@H]1N=[N+]=[N-] (stereo partly specified) | inactive: 39%
20 | O=[As](O)(c1ccccc1)c1ccc(O)cc1 | inactive: 17.5%
21 | CC(=O)NC(SC(=S)N(C)C)C(Cl)(Cl)Cl (stereo unspecified) | inactive: -2.99%
22 | O=[N+]([O-])c1ccc(O)c(/C=N/Nc2ccc([N+](=O)[O-])cc2[N+](=O)[O-])c1 | inactive: 1.04%
23 | O=C(OC1CN2CCC1CC2)c1cccc(Cl)c1 (stereo unspecified) | inactive: -0.346%

Row | Structure (SMILES) | inhibition
24 | C(Cc1nn[nH]n1)Cc1nn[nH]n1 | inactive: 6.72%
25 | Nc1ccc([As](=O)(O)c2ccc([N+](=O)[O-])cc2)cc1 | inactive: 2.38%
26 | c1ccc(-c2nn[nH]n2)c(-c2nn[nH]n2)c1 | inactive: -1.72%
27 | Cc1ccc(NP(=O)(Oc2cccc(C)c2)Oc2cccc(C)c2)nc1 | inactive: -6.8%
28 | CCOC(=O)NC(Sc1ccccc1)C(Cl)(Cl)Cl (stereo unspecified) | inactive: 5.1%
29 | O=C(NC1CCS(=O)(=O)C1)NP(=S)(Oc1ccccc1)Oc1ccccc1 (stereo unspecified) | inactive: -23.8%
30 | CCNC(=S)/N=C(\N)N[N+](=O)[O-] | inactive: -7.21%
31 | O=C(OC1CN2CCC1CC2)c1ccccc1 (stereo unspecified) | inactive: 66.4%
32 | CCC(=O)N1C2C3N(C(=O)CC)C1C1N(C(=O)CC)C(C(N1C(=O)CC)N3C(=O)CC)N2C(=O)CC | inactive: 1.31%
33 | COC(=O)c1cc2c(s1)N=C(c1ccccc1)N(C)P2(=O)N1CCOCC1 (stereo unspecified) | inactive: 19.8%
34 | CC(=O)NC(SC(=S)N(CC(C)C)CC(C)C)C(Cl)(Cl)Cl (stereo unspecified) | inactive: 5.38%
35 | Cc1ccc(OP(=O)(Nc2ccccn2)Oc2ccc(C)cc2)cc1 | inactive: -10.2%
36 | CC(NC(=O)COC(=O)C(O)(c1ccccc1)c1ccccc1)c1ccccc1 (stereo unspecified) | inactive: 8.64%
37 | Cc1ccccc1OP(=O)(Nc1ccccn1)Oc1ccccc1C | inactive: 0.205%
38 | CN(C)C(=O)Oc1noc2ccccc12 | inactive: -5.61%
39 | O=P1(Nc2nc3ccc(Cl)cc3s2)COc2ccccc2O1 (stereo unspecified) | inactive: 1.53%
40 | CCOc1ccc(C2=NCC(CBr)S2)cc1 (stereo unspecified) | inactive: 9.95%
41 | CC(C)(C)C(=O)NC(Sc1ccccc1)C(Cl)(Cl)Cl (stereo unspecified) | inactive: 0.872%
42 | C[C@H]1OP(=O)(Oc2ccccc2)C[C@@H]2O[C@@H]21 (stereo partly specified) | inactive: 26.2%
43 | C[C@@H]1C=CCP(=O)(Oc2ccccc2)O1 (stereo partly specified) | inactive: -2.76%
44 | CC(=O)c1ccc(N2CC2c2ccncc2)cc1 (stereo unspecified) | inactive: -5.6%
45 | CC(=O)Nc1ccc([As](=O)(O)O)c(O)c1 | inactive: 27.5%
46 | CC(=O)Nc1ccc(Oc2c([N+](=O)[O-])cc([N+](=O)[O-])cc2[N+](=O)[O-])cc1 | inactive: -0.937%
